The values that follow come from patent US9518033B2, “(4E)-4-(4-substituted benzylideneamino)-2,3-dihydro-3-substituted-2-thioxothiazole-5-carbonitriles as A2AR antagonist and process for preparation thereof” (COUNCIL OF SCIENTIFIC & INDUSTRIAL RESEARCH, priority 2013, dated 2016).

The target of the assay is T1, human A2A receptors (Homo sapiens, UniProt P29274).
T1 construct: expressed in transfected cells; host or cells: HEK 293T
Description: cAMP functional assay in NECA stimulated HEK293T cells. Conditions: NECA stimulated HEK293T cells treated with 1 μM compound. The assay is classed as cell-based. As for the experimental part:
Standard curve was prepared using Logit-Log Paper plot by drawing percent bound (B/Bo) versus concentration of cAMP for the standards. The concentration of the cAMP in the samples was determined by interpolation.

In turn, `N#Cc1sc(=S)n(-c2ccccc2)c1/N=C/c1ccc(Br)cc1` [Compound 2n, (4E)4-(4-bromobenzylideneamino)-3-phenyl-2,3-dihydro-2-thioxothiazole-5-carbonitrile] returned a cAMP concentration of 0.56 pmol/mL.
